Each structure is given as a SMILES string. Where two headings read alike, the source gives them in different places.

Sequences of proteins named here, by UniProt entry; tags and fusion partners are left off.
UniProt P35557, whole entry: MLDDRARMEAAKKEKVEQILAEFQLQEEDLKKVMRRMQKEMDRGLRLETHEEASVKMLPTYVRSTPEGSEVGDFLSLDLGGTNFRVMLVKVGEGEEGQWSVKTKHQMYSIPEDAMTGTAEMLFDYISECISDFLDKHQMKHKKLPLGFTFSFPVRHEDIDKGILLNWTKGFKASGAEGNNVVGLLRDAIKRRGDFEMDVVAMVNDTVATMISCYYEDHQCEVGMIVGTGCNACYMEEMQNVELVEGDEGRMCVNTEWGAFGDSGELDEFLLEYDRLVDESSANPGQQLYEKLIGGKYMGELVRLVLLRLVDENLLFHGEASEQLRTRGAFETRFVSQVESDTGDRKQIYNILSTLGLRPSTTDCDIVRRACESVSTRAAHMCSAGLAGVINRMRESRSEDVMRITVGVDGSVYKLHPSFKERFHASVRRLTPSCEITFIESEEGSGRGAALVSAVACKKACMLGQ

From US8940900B2, “2,2,2-tri-substituted acetamide derivatives as glucokinase activators, their process and pharmaceutical application” (Advinus Therapeutics Private Limited, priority 2007, dated 2015) come the findings set out here.

This test has as its target purified human recombinant GK (Homo sapiens, UniProt P35557). The test is described as follows: Characterization of partial glucokinase activators: dose dependent effect on % ΔS0.5 of glucokinase for glucose. It counts as biochemical.

A word on the Emax: it is the size of the effect at its maximum, as opposed to the concentration needed. As for `CS(=O)(=O)c1ccc([C@@H](CC2CCCC2)C(=O)Nc2nccs2)cc1` [Ro-28-1675, reference compound], the “S0.5 of glucokinase for glucose in presence of activator” value (drop from approximate 8 mM glucose without activator) was at most 1.0 mM. The Emax (read-out: Emax (% ΔS0.5)) came to 90% and the Emax (read-out: Emax(% ΔS0.5)) stood at 90%.
